Literature values, collected in US8404838B2, “Inhibitors of tyrosine kinase receptor dimerization” (Washington University, priority 2008, dated 2013).

Columns and labels:
EGF receptor = target: T1, EGF receptor (Homo sapiens, UniProt P00533); conditions: from Gan et al. 2007; cited from earlier work
T1 construct: CHO cells stably expressing wild type EGF receptor; expressed in transfected cells

[1] = target: T2, ΔC-EGFR-NLuc and ΔC-EGFR-CLuc (Homo sapiens, UniProt P00533); conditions: from Yang et al. 2009; cited from earlier work
T2 construct: luciferase fragment complementation assay designed for monitoring the dimerization of the extracellular domain of the EGF receptor; expressed in transfected cells; the other entry of the earlier key: firefly luciferase (P08659, Luciferin 4-monooxygenase)

COc1cc2ncnc(Nc3cccc(Cl)c3)c2cc1OC [AG1478]
EGF receptor dimer formation by chemical crosslinking (EGF receptor): increased dimer-formation
EGF receptor dimer formation by luciferase fragment complementation [1]: increased dimer-formation
